# Measurements as given in US9566336B2, “In situ gelling drug delivery system” (pSivida US, Inc., priority 2003, dated 2017).
# Test: In vitro release study of morphine from morphine-diclofenac co-drug/PLGA formulations, HPLC
# Assay type: physicochemical
# Conditions: 10% plasma in HA phosphate buffer, pH 7.4, 37° C.; co-drug was hydrolyzed in the release medium
substance,measurement,value
diclofenate ester of morphine [morphine-diclofenac co-drug],co-drug content in the release medium,No morphine-diclofenac co-drug was detected
